Assay results reported in US9624280B2 (JANSSEN BIOTECH, INC., priority 2013, dated 2017).
Where two headings read alike, the source gives them in different places. No end group written: not given here.

The chains behind the UniProt entries cited, without tags or fusion partners. Residues count along the entry.
UniProt Q15858, 1-1977 isoform Q15858-3 W1150R: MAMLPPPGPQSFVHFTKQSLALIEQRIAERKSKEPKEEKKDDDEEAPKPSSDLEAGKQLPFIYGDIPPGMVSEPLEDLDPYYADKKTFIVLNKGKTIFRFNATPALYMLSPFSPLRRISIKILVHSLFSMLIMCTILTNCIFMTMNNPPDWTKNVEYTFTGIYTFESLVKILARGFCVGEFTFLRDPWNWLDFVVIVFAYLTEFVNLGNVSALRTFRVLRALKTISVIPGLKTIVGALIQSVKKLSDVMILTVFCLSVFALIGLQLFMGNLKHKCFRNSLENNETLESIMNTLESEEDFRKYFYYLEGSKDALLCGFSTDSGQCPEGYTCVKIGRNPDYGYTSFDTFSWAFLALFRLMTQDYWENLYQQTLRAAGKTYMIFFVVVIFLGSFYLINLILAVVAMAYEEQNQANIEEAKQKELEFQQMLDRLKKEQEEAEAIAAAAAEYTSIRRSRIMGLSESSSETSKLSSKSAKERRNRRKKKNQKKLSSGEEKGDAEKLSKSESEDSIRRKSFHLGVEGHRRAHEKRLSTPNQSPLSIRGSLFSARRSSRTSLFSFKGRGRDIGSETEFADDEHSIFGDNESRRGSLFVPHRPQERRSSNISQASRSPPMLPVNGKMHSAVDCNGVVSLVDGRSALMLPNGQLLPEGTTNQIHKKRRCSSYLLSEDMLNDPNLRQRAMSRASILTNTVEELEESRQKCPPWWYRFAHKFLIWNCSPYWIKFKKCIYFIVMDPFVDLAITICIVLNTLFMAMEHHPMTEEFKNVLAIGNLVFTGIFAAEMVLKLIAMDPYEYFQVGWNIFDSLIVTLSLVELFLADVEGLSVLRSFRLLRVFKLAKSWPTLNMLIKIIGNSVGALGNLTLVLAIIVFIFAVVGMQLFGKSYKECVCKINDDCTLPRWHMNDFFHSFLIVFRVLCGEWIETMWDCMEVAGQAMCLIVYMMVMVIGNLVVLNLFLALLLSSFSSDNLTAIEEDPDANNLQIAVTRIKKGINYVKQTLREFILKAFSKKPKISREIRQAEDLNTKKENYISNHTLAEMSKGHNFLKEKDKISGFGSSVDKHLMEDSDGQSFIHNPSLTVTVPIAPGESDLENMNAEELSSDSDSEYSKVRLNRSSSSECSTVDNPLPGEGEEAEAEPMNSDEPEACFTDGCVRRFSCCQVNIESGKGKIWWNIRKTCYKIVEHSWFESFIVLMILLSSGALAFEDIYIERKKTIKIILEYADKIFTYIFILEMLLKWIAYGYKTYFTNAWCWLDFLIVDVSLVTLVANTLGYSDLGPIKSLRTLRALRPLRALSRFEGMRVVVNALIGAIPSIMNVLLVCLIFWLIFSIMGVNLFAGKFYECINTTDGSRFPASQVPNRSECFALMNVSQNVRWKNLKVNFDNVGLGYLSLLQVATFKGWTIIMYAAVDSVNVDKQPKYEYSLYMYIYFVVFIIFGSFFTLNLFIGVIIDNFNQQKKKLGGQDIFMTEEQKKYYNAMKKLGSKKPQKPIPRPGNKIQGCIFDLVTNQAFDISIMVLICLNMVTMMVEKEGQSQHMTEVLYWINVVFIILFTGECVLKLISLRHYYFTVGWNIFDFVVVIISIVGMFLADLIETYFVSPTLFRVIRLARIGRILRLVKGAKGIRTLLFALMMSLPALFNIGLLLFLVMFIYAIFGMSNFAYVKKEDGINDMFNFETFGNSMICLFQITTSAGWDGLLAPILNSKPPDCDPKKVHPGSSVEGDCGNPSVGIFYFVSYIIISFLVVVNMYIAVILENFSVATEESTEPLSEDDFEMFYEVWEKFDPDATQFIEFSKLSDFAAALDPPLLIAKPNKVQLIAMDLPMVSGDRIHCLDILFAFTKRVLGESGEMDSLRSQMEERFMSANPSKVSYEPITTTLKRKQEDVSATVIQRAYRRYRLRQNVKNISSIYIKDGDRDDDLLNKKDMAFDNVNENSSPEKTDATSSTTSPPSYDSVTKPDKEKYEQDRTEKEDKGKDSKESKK
UniProt Q9UQD0, whole entry: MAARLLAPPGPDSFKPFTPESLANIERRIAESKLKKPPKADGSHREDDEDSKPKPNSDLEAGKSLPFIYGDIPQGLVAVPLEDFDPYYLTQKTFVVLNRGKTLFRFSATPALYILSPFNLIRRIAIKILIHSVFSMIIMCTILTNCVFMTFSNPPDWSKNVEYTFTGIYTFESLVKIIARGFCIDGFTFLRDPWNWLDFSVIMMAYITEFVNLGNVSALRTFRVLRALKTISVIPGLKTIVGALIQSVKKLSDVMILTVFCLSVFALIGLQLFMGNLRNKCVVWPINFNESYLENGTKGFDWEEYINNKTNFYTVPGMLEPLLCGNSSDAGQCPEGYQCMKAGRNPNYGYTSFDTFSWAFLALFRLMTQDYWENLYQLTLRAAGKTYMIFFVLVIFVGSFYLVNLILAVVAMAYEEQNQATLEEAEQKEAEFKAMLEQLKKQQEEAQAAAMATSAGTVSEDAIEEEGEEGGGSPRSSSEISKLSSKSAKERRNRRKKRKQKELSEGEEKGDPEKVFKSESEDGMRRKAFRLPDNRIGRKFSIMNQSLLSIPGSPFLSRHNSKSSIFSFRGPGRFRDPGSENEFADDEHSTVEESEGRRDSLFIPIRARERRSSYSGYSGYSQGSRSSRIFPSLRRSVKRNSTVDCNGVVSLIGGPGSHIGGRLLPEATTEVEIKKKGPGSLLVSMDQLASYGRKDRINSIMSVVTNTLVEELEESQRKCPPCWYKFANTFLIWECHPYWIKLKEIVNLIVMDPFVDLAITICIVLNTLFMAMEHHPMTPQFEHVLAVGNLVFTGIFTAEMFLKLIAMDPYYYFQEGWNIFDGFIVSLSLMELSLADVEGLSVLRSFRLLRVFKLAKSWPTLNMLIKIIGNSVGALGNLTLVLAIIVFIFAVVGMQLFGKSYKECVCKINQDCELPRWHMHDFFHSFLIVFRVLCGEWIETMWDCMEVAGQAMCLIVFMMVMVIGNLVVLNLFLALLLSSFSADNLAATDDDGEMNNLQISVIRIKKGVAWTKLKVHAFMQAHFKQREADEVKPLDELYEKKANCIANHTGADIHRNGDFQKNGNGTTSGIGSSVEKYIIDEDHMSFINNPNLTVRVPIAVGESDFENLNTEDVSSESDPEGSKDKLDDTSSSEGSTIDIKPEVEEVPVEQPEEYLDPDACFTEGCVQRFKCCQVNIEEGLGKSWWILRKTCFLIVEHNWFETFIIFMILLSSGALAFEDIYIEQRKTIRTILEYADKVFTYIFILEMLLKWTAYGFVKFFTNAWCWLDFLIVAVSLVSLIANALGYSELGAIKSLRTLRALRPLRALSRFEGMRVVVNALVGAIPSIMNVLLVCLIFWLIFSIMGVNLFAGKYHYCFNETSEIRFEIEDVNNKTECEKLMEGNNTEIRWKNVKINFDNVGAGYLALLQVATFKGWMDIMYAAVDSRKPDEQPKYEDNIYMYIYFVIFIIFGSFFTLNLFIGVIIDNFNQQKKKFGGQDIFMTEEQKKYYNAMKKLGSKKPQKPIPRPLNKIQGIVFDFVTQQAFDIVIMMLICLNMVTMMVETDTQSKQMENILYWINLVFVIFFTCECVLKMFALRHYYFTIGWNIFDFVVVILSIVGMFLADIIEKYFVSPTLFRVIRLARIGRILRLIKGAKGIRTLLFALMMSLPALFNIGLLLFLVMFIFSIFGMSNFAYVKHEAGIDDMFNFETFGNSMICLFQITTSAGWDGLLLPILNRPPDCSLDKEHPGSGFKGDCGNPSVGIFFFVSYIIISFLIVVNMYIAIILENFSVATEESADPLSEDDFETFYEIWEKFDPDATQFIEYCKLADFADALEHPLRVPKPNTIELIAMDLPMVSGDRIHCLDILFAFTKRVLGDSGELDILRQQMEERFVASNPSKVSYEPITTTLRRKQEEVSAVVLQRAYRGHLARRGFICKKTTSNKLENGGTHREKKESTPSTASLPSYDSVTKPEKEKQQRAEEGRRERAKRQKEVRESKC

Assays:
Type in all cases: cell-based
[1] = target: T1, human Nav1.7 (Homo sapiens, UniProt Q15858, W1161R); conditions: read-out: IC50 value for human Nav1.7, FLIPR Tetra veratridine-induced depolarization inhibition assay
T1 construct: expressed in transfected cells

[2] = target: T1, human Nav1.7; conditions: read-out: IC50 for Nav1.7, QPatch electrophysiology assay
[3] = target: T2, human Nav1.6 (Homo sapiens, UniProt Q9UQD0)
T2 construct: expressed in transfected cells

GPYCQKWMWTCDSERKCCEGMVCRLWCKKKLW-OH (cysteine pairing not given here) [NV1D12, reference compound]
IC50 [1]: ~4 nM | IC50 [2]: ~2.2 nM

GPQCQKWMQTCDRERKCCEGFVCTLWCRKKLW-COOH [NV1D3034]
selectivity for Nav1.7 compared to recombinant Protoxin-II [3]: improved selectivity
